Earlier results, collected in patent publication US7415358B2, “Molecular toxicology modeling” (Ocimum Biosolutions, Inc., priority 2001, dated 2008).

Tested on: tubulin
Settings: cited from earlier work

Q: For `COc1cc2c(c(OC)c1OC)-c1ccc(OC)c(=O)cc1[C@@H](NC(C)=O)CC2` [COLCHICINE], which total tubulin levels is on record?
A: total tubulin levels decreased twofold
